{
  "sequences": {"note": "Amino acid sequences for entries named in this document (tags omitted). A change or cut given only in a name is not applied to a line headed by its entry.", "UniProt Q9NPD5": "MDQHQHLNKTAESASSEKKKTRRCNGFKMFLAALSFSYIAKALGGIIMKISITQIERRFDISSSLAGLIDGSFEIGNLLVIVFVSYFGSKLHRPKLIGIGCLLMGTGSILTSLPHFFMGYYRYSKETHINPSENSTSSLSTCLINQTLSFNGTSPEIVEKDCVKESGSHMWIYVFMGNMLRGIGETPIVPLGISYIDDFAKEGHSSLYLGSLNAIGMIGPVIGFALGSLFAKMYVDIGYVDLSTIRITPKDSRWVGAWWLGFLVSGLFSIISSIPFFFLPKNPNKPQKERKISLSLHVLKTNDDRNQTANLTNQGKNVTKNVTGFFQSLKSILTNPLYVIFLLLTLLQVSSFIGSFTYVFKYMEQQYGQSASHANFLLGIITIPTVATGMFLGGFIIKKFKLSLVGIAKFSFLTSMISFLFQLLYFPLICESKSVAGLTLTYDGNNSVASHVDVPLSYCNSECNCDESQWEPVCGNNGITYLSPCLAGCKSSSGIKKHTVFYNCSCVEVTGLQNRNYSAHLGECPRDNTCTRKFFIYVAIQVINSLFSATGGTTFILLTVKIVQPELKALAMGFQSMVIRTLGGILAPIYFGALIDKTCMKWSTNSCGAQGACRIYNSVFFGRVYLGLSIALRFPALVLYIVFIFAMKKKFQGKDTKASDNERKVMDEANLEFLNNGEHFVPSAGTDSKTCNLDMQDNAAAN"},
  "source": "paper PMC3361267",
  "about": "(Journal of Medicinal Chemistry, 2012)",
  "target": "OATP1B3 (Homo sapiens, UniProt Q9NPD5)",
  "data": [
    {"smiles": "OCCN(CCO)c1nc(N2CCCCC2)c2nc(N(CCO)CCO)nc(N3CCCCC3)c2n1", "note": "[dipyridamole, Dipyridamole]", "values": [
      {"measurement": "OATP1B3 Inhib %", "value": 91.8, "unit": "%"}
    ]}
  ]
}
